Results from PubChem BioAssay AID651613 (The Scripps Research Institute Molecular Screening Center, 2012).
Only a part is listed here, and it is no random draw. The source made the active and inactive calls. Rule as the data show it: active = inhibition above about 42%; inactive = the rest.

Sequences of proteins named here, by UniProt entry; tags and fusion partners are left off.
UniProt O00482, whole entry: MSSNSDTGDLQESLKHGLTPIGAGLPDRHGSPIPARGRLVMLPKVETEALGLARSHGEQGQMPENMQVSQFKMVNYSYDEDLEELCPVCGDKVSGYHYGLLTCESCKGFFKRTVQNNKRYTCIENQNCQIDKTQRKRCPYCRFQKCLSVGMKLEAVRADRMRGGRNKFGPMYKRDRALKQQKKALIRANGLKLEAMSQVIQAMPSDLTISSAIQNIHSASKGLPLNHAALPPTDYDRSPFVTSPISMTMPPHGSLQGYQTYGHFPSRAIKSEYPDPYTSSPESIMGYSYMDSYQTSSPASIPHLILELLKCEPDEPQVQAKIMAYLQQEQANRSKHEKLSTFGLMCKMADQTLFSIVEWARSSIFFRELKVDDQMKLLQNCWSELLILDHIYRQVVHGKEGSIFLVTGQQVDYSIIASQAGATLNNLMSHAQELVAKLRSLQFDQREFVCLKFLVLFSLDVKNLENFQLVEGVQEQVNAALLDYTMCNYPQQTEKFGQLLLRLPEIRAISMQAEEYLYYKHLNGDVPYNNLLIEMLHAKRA

Each compound was assayed against Nuclear receptor subfamily 5 group A member 2 (Homo sapiens) (UniProt O00482) (assay: LRH-1 (NR5A2) inverse agonists, retest, confirmation, cell-based, luminescence (AID 651613;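 also: HEK293T cells co-transfected with LRH-1 and StAR promoter luciferase reporter; 0% = vehicle wells and 100% = parental cells lacking receptor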)). Conditions: cell-based LRH-1 luciferase reporter, inverse agonism; at 3.6 µM; hits give high values.
In the case of `O=[N+]([O-])c1cc([N+](=O)[O-])c(-c2cnn(-c3ccccc3)c2)c([N+](=O)[O-])c1`, the inhibition is reported as active: 61.3%.
